# Data from article PMC3145769.
# What was measured:
# Assay in all cases: co-IP; anti-Flag M2 affinity gel on extracts of human HEK 293 cells transfected with mouse 3xFlag Cyclin A2 alleles; endogenous partners detected by Western blot; densitometry (ImageQuantTL) normalised to immunoprecipitated Cyclin A2, percent of WT; repeated 3 times
# [1] = molecular target: Cyclin A2 WT, C-terminally fused to 3 Flag tags (mouse) (UniProt P51943)
# [2] = molecular target: Cyclin A2 D171A, C-terminally fused to 3 Flag tags (mouse) (UniProt P51943)
# [3] = molecular target: Cyclin A2 L204A, C-terminally fused to 3 Flag tags (mouse) (UniProt P51943)
# [4] = molecular target: Cyclin A2 M200A, C-terminally fused to 3 Flag tags (mouse) (UniProt P51943)
# [5] = molecular target: Cyclin A2 W207A, C-terminally fused to 3 Flag tags (mouse) (UniProt P51943)
substance,measurement,setting,value
"CDK2 (endogenous, HEK 293) (from UniProt P24941 1-298) (enzyme)",percent co-precipitated relative to WT,[1],100%
same,percent co-precipitated relative to WT,[2],96%
same,percent co-precipitated relative to WT,[3],12.6%
same,percent co-precipitated relative to WT,[4],100%
same,percent co-precipitated relative to WT,[5],5%
